Source: article PMC7000712, “A kinetic method for measuring agonist efficacy and ligand bias using high resolution biosensors and a kinetic data analysis framework” (Scientific Reports, 2020)

Legend:
angiotensin AT1 receptor [1] = assay: Bias ratio, arrestin recruitment over Ca^2+ mobilization (kτ ratio)
angiotensin AT1 receptor [2] = target: T1, angiotensin AT1 receptor (Homo sapiens, UniProt P30556); assay: Ca^2+ mobilization, R-GECO sensor, AT1 receptor, HEK 293 T cells; assay type: cell-based; details: 32 μM
angiotensin AT1 receptor [3] = target: T1, angiotensin AT1 receptor; assay: Arrestin-3 (β-arrestin2) mNeonGreen biosensor recruitment, AT1 receptor, HEK 293 T cells (time course); assay type: cell-based
angiotensin AT1 receptor [4] = assay: Bias ratio, arrestin recruitment over DAG (kτ ratio); details: 32 μM; kτ normalized to AngII for arrestin divided by that for DAG
angiotensin AT1 receptor [5] = target: T1, angiotensin AT1 receptor; assay: Diacylglycerol production, Red Downward DAG sensor, AT1 receptor, HEK 293 T cells; assay type: cell-based; details: 32 μM
angiotensin AT1 receptor [6] = details: cited from earlier work
[7] = mean kτ of ligand divided by that for AngII
[8] = 32 µM, association exponential fit, Supplementary Table S1

- Arrestin/Ca^2+ kτ ratio (% AngII ratio) (angiotensin AT1 receptor [1]; 32 μM, kτ normalized to AngII for arrestin divided by that for Ca^2+): 0.81
- signaling bias, arrestin vs Gq (in words) (angiotensin AT1 receptor [1]; kτ ratio arrestin/Ca^2+, relative to AngII): unbiased, relative to AngII
- kτ, calcium (angiotensin AT1 receptor [2]; C of rise-and-fall exponential fit with drift, mean ± s.e.m., three experiments): 2.5 ± 0.2 NFU.min^−1
- kτ (% AngII), calcium (angiotensin AT1 receptor [2]; [7]): 110 % AngII
- Plateau (angiotensin AT1 receptor [3]; [8]): 0.44 ± 0.00 NFU
- kobs (angiotensin AT1 receptor [3]; [8]): 0.85 ± 0.05 min⁻¹
- t1/2 of arrestin recruitment (angiotensin AT1 receptor [3]; 32 µM, calculated from kobs (t1/2 = 0.693/kobs)): 49 ± 3 s
- kτ (% AngII), arrestin (single concentration) (angiotensin AT1 receptor [3]; 32 μM, mean kτ of ligand divided by that for AngII): 92 % AngII
- Emax, 1 minute time point (angiotensin AT1 receptor [3]; 1 min (rise phase), sigmoid fit, representative experiments): 103 % Ang II
- Emax, 20 minute time point (angiotensin AT1 receptor [3]; 20 min (plateau), sigmoid fit, representative experiments): 100 % Ang II
- KA (angiotensin AT1 receptor [3]; calculated from the mean pKA value, L50 of Plateau × kobs vs concentration curve): 130 nM
- kτ, initial rate of arrestin recruitment (concentration-response) (angiotensin AT1 receptor [3]; concentration-response method, asymptote of Plateau × kobs vs concentration, mean ± s.e.m., three experiments (SII n = 2), NFU, normalized fluorescence units, HEK 293 T, DPBS, Biotek Synergy Mx): 0.38 ± 0.02 NFU.min^−1
- kτ (% AngII), arrestin (concentration-response) (angiotensin AT1 receptor [3]; concentration-response method, mean kτ of ligand divided by that for AngII): 93 % AngII
- Emax, kinetic model initial rate (angiotensin AT1 receptor [3]; concentration-response of the initial rate, repeated from Table 1 in Supplementary Table S2): 93 % Ang II
- arrestin recruitment efficacy at the initial rate (in words) (angiotensin AT1 receptor [3]; initial rate, kτ method): effectively full agonists
- pKA (angiotensin AT1 receptor [3]; ligand affinity from L50 of Plateau × kobs vs concentration curve, mean ± s.e.m., three experiments (SII n = 2)): 6.90 ± 0.04
- EC50 (angiotensin AT1 receptor [3]; read-out: EC50, 1 minute time point, 1 min (rise phase), sigmoid fit, representative experiments): 100 nM
- EC50 (angiotensin AT1 receptor [3]; read-out: EC50, 20 minute time point, 20 min (plateau), sigmoid fit, representative experiments): 14 nM
- kτ, arrestin (single concentration) (angiotensin AT1 receptor [3]; single maximally-stimulating concentration 32 μM, Plateau × kobs, mean ± s.e.m., three experiments (SII n = 2)): 0.37 ± 0.02 NFU.min^−1
- Arrestin/DAG kτ ratio (% AngII ratio) (angiotensin AT1 receptor [4]): 0.74
- kτ, diacylglycerol (angiotensin AT1 receptor [5]; C of rise-and-fall exponential fit, mean ± s.e.m., three experiments): 2.1 ± 0.1 NFU.min^−1
- kτ (% AngII), diacylglycerol (angiotensin AT1 receptor [5]; [7]): 120 % AngII
Structure (SMILES): CC[C@H](C)[C@H](NC(=O)[C@H](Cc1ccc(O)cc1)NC(=O)[C@@H](NC(=O)CN)C(C)C)C(=O)N[C@@H](Cc1cnc[nH]1)C(=O)N1CCC[C@H]1C(=O)N[C@@H](Cc1ccccc1)C(=O)O
- signaling bias, arrestin vs G-protein (in words, literature) (angiotensin AT1 receptor [6]): balanced ligand (relative to AngII)
- signaling bias, arrestin vs G-protein (in words, literature) (angiotensin AT1 receptor [6]; listed as TRV 055): unbiased relative to AngII

Like-named read-outs stand apart in the source and are kept apart here.
